Source: ChEMBL document CHEMBL1148435, “N,N-dialkyl-4-[(8-azabicyclo[3.2.1]-oct-3-ylidene)phenylmethyl]benzamides, potent, selective delta opioid agonists” (Bioorg Med Chem Lett, 2004)

Protein sequences, listed by entry. Tags and fused reporters are not part of them.
UniProt P41143, whole entry: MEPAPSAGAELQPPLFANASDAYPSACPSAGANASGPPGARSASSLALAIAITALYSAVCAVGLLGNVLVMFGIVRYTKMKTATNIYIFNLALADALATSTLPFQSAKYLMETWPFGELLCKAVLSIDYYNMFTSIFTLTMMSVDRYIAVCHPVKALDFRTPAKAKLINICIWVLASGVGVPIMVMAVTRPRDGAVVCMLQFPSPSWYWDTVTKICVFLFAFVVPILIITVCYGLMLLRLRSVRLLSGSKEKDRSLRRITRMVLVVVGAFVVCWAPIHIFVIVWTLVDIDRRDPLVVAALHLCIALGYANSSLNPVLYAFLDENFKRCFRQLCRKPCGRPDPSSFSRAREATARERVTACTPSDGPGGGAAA
UniProt P35372, whole entry: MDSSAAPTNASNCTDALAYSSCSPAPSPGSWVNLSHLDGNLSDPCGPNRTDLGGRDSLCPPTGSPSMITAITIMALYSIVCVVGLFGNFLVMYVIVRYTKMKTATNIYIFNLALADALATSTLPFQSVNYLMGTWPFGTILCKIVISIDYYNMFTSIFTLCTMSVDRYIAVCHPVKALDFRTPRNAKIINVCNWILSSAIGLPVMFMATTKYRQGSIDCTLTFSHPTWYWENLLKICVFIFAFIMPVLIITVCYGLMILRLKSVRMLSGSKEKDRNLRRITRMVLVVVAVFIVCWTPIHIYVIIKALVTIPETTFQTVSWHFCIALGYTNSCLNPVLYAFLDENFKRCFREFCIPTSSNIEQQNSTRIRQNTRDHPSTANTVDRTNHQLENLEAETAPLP

How the values were obtained:
[1] = target: T1, Delta-type opioid receptor (Homo sapiens, UniProt P41143); test: Effective concentration against stimulation of [35S]GTP-gamma-S, binding in CHO cells transfected with the human opioid receptor delta 1
[2] = target: Mu-type opioid receptor (Homo sapiens, UniProt P35372); test: Binding affinity for mu opioid receptor
[3] = target: T1, Delta-type opioid receptor; test: Binding affinity for delta opioid receptor

SMILES | EC50 [1] [nM] | Ki [2] [µM] | Ki [3] [nM]
C=CCN1[C@@H]2CC[C@H]1CC(N(c1ccccc1)c1ccc(C(=O)N(CC)CC)cc1)C2 (some centres undefined) | 12 | 3.65 | 0.5
CCN(CC)C(=O)c1ccc(N(c2ccccc2)C2C[C@H]3CC[C@@H](C2)N3)cc1 (some centres undefined) | 12 | 5.04 | 0.3
C=CCN1CCC(N(c2ccccc2)c2ccc(C(=O)N(CC)CC)cc2)CC1 | 21 | 11.6 | 24
